Values quoted from earlier work, collected in patent US12194158B2, “Oromucosal nanofiber carriers for therapeutic treatment” (Instar Technologies A.S., priority 2016, dated 2025).

Conditions: in water at 25° C.; cited from earlier work

Human serum albumin [HSA]
isoelectric point (pI): ~4.7
